{"sequences": {"note": "Chains of the proteins cited; added tags and fusions are not shown. Residues count along the entry.", "UniProt P27487, 39-766": "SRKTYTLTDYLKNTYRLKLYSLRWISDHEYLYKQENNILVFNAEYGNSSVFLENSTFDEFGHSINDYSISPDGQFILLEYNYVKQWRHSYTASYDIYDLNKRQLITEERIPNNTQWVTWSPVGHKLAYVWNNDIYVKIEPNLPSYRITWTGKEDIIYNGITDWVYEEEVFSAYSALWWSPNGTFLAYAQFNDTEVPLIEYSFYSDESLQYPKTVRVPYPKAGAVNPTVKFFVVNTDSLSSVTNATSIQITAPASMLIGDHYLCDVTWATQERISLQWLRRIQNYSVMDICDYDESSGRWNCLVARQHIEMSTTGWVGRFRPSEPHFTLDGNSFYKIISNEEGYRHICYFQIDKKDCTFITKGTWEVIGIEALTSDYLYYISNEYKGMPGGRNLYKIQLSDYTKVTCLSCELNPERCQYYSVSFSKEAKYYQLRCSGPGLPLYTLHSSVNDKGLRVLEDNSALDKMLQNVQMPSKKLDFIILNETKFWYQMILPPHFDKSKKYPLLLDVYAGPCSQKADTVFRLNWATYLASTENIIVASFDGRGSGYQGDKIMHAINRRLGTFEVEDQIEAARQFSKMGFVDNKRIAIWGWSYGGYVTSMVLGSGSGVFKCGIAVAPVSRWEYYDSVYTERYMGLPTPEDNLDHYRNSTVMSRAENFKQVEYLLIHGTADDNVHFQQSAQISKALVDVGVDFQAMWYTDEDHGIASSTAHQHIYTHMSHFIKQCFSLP"}, "source": "patent US20070072830A1", "about": "“Methods for treating diabetes” (Point Therapeutics, Inc., priority 2004, published 2007)", "biological_target": "T1, soluble recombinant human DPP-IV (Homo sapiens, UniProt P27487)", "T1 construct": "immunoglobulin kappa light chain secretion signal (pSecTag2-B) (N, cleaved yes); made in house; host or cells: 293T cells, transient transfection; culture supernatant used unpurified", "assay": "In vitro inhibition of recombinant soluble DPP-IV by amino boronic dipeptides", "type": "biochemical", "conditions": "assayed at 3 minutes, 78 minutes and 16 hours after addition of Ala-Pro-AFC", "text": "Production of soluble recombinant human DPP-IV. Based on information on the N-terminus of serum DPP-IV (15), a truncated DPP-IV was engineered in which a signal/leader sequence was joined to the residue in DPP-IV corresponding to the N-terminus of serum DPP-IV to allow secretion. The cDNA encoding the desired truncated human DPP-IV dimer enzyme was engineered into the mammalian secretion vector pSecTag2 (Cat# V900-20, InVitrogen Corporation). The vector, available in A, B or C versions, representing three possible phases for gene fusion, contained an immunoglobulin-kappa light chain secretion signal followed by a selection of restriction sites for gene insertion. […]\nIn vitro assay of enzymatic activity of recombinant soluble DPP-IV and inhibition by amino boronic dipeptides. […] The reaction mixture was incubated at room temperature, and production of the fluorescent AFC product was measured in a fluorometer (excitation, 400 nm; emission 505 nm), either by continuous monitoring or after termination with a one to one-tenth volume of 1-M sodium acetate, pH 4.5. Fluorometric reading were made with a […] Spectra Max GeminiXS capable of reading 96-well microtiter plates. […]", "data": [{"smiles": "CC(C)[C@H](N)C(=O)N1CCC[C@H]1B(O)O", "note": "[Val-boroPro]", "values": [{"measurement": "Persistence / reversibility of DPP-IV inhibition", "value": "sustained DPP-IV inhibition"}]}]}
